Structures can show the parent of a compound that is named as a salt.
Test system: mouse melanoma B16F10 cells
Assay: Cytotoxic effect on melanoma cells in vitro
Protocol: IC50 values were calculated from MTT activity (Bank, U et al, 1991, Measurement of cellular activity by means of the MTT-test. Allerg Immunol 37:119-123).

In the case of Cc1c(C)c2c(c(C)c1OC(=O)/C=C\C(=O)O)CC[C@@](C)(CCC[C@H](C)CCC[C@H](C)CCCC(C)C)O2 [αTOM, α-tocopheryl maleate], the “cytotoxic potential (order)” value is reported as “αTAM>αTOM>αTOS>>αTOH”.

— patent US20100260830A1, “Liposomal Formulations of Tocopheryl Amides” (priority 2009, published 2010)
